Experimental data: patent US7718768B2, “Biologically active peptide [sequence]” (CMS Peptides Patent Holding Company Limited, priority 2001, dated 2010)
Values joined by “and” are separate entries in the source; they are usually repeats but may differ in a detail not shown here. Equal values may be shown once.

How the values were obtained:
[1] = tested on: T lymphocyte; assay: T lymphocyte transformation test (ConA, MTT) on spleen cells of treated mice; type: in vivo, BALB/c mice; set-up: key: OD of assay wells divided by OD of control wells; conditions: IFN-γ and IL-2 groups 3×10^5 IU/kg/day, X ± SD
Procedure: The above substances were all dissolved in 0.5 ml saline and injected intraperitoneal (i.p.) for 15 continuous days, once per day.
The BALB/c mice were randomly divided into the peptide, IFN, IL-2, and saline groups. Ten mice per group. The day after the last test substance administration, the mice were sacrificed by cervical dislocation. The spleen was isolated aseptically and manually dispersed in cold D-Hank's solution using an injection needle. The dispersed cell suspension was further sieved through a 100 gauge 150 μm diameter stainless steel sieve. After centrifugation at 200 g for 10 minutes, the supernatant was discarded. The cell pellet was re-suspended in 10 volume of Tris-NH4Cl buffer and then kept standing still for 10 minutes at room temperature. The suspended cells were collected by centrifugation at 150 g for 10 minutes. The cells were washed 2-4 times with cold D-Hank's solution by re-suspending and collecting by centrifugation with condition as described above. The washed cells were then diluted to the desired cell densities by RPMI-1640 culture medium, containing 10% fetal bovine serum.
Spleen cells of density 1×10^6/ml were placed onto a 96 wells cell culture plate, 100 μl/well, three parallel wells each of the assay sample and control sample per mouse. To the assay wells, 100 μl/well ConA of 100 μg/ml in RPMI-1640 was added, and 100 μl/well plain RPMI-1640 was used for the controls. The cells were incubated for 66 hrs at 37° C., 5% CO2. The cells were then pelleted by centrifugation at 150 g for 10 minutes. The supernatant was collected and stored at −20° C. for cytokines IL-2 and IFN determination.
50 μl/well MTT of 1 mg/ml in RPMI-1640 was added to the cell pellet and the cells re-suspended by shaking for 2 minutes. The incubation was continued for 4 hours. The supernatant was discarded after centrifugation at 150 g for 10 minutes. 120 μl 40 mM HCl-2-propanol was added to the cell pellet and shaken for 3 minutes. to obtain OD570nm of each well referenced at 630 nm. An ELISA reader was used
Each mouse formed three assay wells and three control wells. The Stimulation Index (SI) of each mouse was obtained by first deriving the average OD of the three parallel wells, then dividing the value of the assay wells by the control wells.

[2] = tested on: T lymphocyte; set-up: species or system BALB/c mice; conditions: mouse, in vivo, ip
[3] = tested on: ascitic fluid type liver cancer H22; assay: survival of mice with transplanted ascitic fluid type liver cancer H22; type: in vivo, BALB/c mice; conditions: 3 × 10^5 IU/kg i.p. once per day
Procedure: Intraperitoneal injection, once per day. […] The cyclophosphamide groups were treated on the next day after transplanting the cancer cells. Treatment of all groups with testing substance lasted for 30 days or until the animal died unless otherwise specified.
Stock H22 cells were incubated in DMEM/F12 medium supplemented with 10% fetal bovine serum, 37° C./5% CO2 for 72 hrs, then washed 3-4 times with Hank's solution at room temperature. Adjust cell concentration to 1-2×10^9 per liter with Hank's solution. 0.2 ml of the cell suspension was implanted to the abdominal cavity of several BALB/c mice for 6-8 days. The mice were killed by cervical vertebra dislocation. Ascitic fluid of the mice was collected asceptically and the cell concentration adjusted to 1×10^6 per ml with Hank's solution. 0.2 ml of the cell suspension was implanted into the abdominal cavity of healthy mice to generate the H22 carrying mouse model for ascitic fluid type liver cancer. Administration of test substance started as described in section Method 1. Survival data of the mice was recorded. If the animal survived longer than the experiment, the survival days was recorded as the duration of the experiment. […] The survival index was calculated according to the following formula: Survival index(mean survival days in treatment group−mean survival days of control group)÷mean survival days of control group×100% 4. […]

[4] = tested on: anti-SRBC antibody; assay: humoral immunity (SRBC hemolysis index) of mice bearing transplanted B16 melanoma; type: in vivo, C57BL/6 mice; set-up: key: index = (OD540 of test sample ÷ reference OD540) × 500; conditions: 3 × 10^5 IU/kg i.p. once per day
Procedure: Intraperitoneal injection, once per day. […] Treatment of all groups with testing substance lasted for 30 days or until the animal died unless otherwise specified.
Stock B16 mouse melanoma cells were incubated in DMEM/F12 medium supplemented with 10% fetal bovine serum, 37° C./5% CO2 for 72 hrs, then washed 3-4 times with Hank's solution. The cell concentration was adjusted to 1×10^5 per ml with Hank's solution and 0.1 ml of the cell suspension was injected via the tail vein into the testing mice to generate the B16 melanoma bearing animal model. Treatment with test substance started as described in section Method 1.
Sheep red blood cells (SRBC) were prepared by collecting blood from the cervical vein and put into a sterile flask with glass beads. The flask was shaken for 3 minutes and the blood then mixed with Alsever solution (glucose 2.05 g, NaCl 0.4 g, […] 0.8 g, adjust to 100 ml with distilled water) and stored at 4° C. Immediately before use, samples were centrifuged at 130 g, 5 minutes to collect the SRBC. The cells were washed two times by re-suspension and centrifugation in normal saline. […]
Reference OD540nm was obtained by mixing 0.25 ml SRBC suspension with Drabkin solution to 4 ml and placed at room temperature for 10 minutes before OD540nm was taken. […] The Pathological Changes were Recorded, and the Numbers of Melanoma Lung Metastasis Foci were Counted. […]

## IL-2: recombinant human interleukin-2, Shanghai Huaxin Biotech Inc.; positive control immunostimulant
[1]; peptide 0.5 μg/kg/day i.p. 15 days
  stimulation index (T lymphocyte transformation): 1.6 ± 0.1
[1]; peptide 5 μg/kg/day i.p. 15 days
  stimulation index (T lymphocyte transformation): 1.6 ± 0.1
[1]; peptide 50 μg/kg/day i.p. 15 days
  stimulation index (T lymphocyte transformation): 1.8 ± 0.2
[1]; peptide 500 μg/kg/day i.p. 15 days
  stimulation index (T lymphocyte transformation): 1.7 ± 0.2
[2]
  activity of T lymphocyte in secreting IFN: 120 ± 13 IU and 113 ± 17 IU and 105 ± 14 IU and 107 ± 13 IU
[3]
  Survival days: 13.6 ± 0.5 days
[4]
  Hemolysis index: 49.3 ± 24.7
